{"sequences": {"note": "By UniProt entry, the sequences of proteins in these tests, tags left out. Residues count along the entry.", "UniProt P14780, 94-707": "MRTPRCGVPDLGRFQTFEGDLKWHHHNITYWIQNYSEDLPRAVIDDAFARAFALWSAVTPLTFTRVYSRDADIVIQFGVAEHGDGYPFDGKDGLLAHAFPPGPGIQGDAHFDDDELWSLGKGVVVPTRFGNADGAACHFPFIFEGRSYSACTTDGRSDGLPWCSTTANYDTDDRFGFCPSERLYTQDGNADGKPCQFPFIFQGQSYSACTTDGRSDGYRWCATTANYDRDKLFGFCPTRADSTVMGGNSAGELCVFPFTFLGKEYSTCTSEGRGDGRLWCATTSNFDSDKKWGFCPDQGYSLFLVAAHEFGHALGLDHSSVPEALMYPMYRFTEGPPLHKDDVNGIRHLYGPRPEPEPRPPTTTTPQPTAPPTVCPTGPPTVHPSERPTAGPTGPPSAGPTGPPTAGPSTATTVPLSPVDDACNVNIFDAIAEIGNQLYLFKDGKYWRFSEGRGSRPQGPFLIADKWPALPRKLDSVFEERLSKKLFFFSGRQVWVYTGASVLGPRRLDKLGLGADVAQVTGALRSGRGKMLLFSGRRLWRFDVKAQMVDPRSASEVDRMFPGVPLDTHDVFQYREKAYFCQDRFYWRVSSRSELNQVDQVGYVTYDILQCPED", "UniProt P78536, 215-824": "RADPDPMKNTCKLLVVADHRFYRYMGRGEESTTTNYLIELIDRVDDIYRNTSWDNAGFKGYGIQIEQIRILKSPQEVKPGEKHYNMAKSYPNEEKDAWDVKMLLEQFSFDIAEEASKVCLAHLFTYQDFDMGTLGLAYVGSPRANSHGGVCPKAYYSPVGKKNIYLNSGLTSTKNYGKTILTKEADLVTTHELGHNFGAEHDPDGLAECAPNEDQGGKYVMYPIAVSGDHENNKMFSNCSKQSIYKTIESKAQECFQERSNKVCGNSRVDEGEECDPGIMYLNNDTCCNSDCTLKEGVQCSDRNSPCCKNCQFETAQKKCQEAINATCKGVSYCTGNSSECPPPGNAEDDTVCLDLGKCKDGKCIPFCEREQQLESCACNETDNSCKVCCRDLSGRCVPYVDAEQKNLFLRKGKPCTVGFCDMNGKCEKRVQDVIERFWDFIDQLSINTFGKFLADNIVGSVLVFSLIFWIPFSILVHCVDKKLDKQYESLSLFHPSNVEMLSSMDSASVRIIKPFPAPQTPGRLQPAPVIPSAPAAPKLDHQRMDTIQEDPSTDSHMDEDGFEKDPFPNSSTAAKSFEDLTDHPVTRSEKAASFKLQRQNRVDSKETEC"}, "source": "patent US20040171543A1", "about": "“Matrix metalloproteinase inhibitors and methods for identification of lead compounds” (priority 2002, published 2004)", "origin": "cited, not measured here", "settings_in_all_cases": "MMP-13 selective compound, Chen et al.; cited from earlier work", "key": {"[1]": {"target": "T1, MMP-1 (Homo sapiens, UniProt P03956)", "T1 sequence (P03956 100-469)": "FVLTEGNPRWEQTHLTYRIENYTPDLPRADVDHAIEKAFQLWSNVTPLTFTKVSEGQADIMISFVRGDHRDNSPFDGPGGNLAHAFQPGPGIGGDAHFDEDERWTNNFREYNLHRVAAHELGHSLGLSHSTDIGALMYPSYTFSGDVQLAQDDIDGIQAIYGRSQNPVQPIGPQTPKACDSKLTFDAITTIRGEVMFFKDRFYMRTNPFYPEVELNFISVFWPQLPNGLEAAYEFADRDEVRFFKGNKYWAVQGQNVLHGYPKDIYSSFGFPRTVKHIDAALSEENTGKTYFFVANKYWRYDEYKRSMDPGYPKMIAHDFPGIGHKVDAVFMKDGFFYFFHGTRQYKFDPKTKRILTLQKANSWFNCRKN"}, "[2]": {"target": "MMP-9 (Homo sapiens, UniProt P14780)"}, "[3]": {"target": "TACE (Homo sapiens, UniProt P78536)"}}}
{"smiles": "Cc1cc(C)c(N(Cc2ccccc2)S(=O)(=O)c2ccc(OCCNC(=O)c3cc4ccccc4o3)cc2)c(C(=O)NO)c1", "note": "[WAY-170523]", "values": [{"measurement": "Selectivity against MMP-1", "setting": "[1]", "result": "> 5800", "unit": "fold"}, {"measurement": "Selectivity against MMP-9", "setting": "[2]", "result": 56, "unit": "fold"}, {"measurement": "Selectivity against TACE", "setting": "[3]", "result": 500, "unit": "fold"}]}
